Experimental data as given in patent US20260375151A1, “KETOREDUCTASE MUTANT AND USE THEREOF” (SOUTH CHINA UNIVERSITY OF TECHNOLOGY, priority 2023, published 2026).

Tested on: T1, CC(C)C(=O)CC[C@@H](C)[C@H]1CCC2C3C(CC[C@@]21C)[C@@]1(C)CC[C@@H](O)C[C@@H]1C[C@H]3O
T1 construct: substrate 1a with NADH
Assay: Enzyme activity assay of purified Y199A/N149L mutant (change in absorbance at 340 nm, NADH)
Type: biochemical, Novosphingobium aromaticivorans
Conditions: other: role: substrate, 1 mM NADH, 0.5 μM purified enzyme, 100 mM PBS pH 7.2
Method: The collected wet cells were resuspended in a reaction buffer in a ratio of 1 g wet cells to 15 mL of reaction buffer. The cells were lysed by ultrasonication in an ice bath using cycles of turn-on for 1 s and turn-off for 2 s for a total duration of 45 min. The lysate was centrifuged at 12,000 rpm and 4 °C for 15 min, and the supernatant was filtered through a 0.22 μm membrane for subsequent purification. The purification was performed by Ni-NTA affinity chromatography using a 5 mL of pre-packed column. The entire purification system was first equilibrated with an equilibration buffer, and the sample was loaded at a flow rate of 1 mL/min. Unbound impurity proteins were further removed with the equilibration buffer, and gradient elution was performed by using an elution buffer (500 mM NaCl, and 500 mM imidazole). A target protein was eluted at approximately 150 mM imidazole. The target protein was collected, and concentrated and desalted by using an ultrafiltration tube (50 kDa cutoff) to a final volume of 1 mL. A protein solution was aliquoted and stored at −80 °C for further use.
Therefore, the activity of the mutant was evaluated by monitoring the change in absorbance at 340 nm during the reaction. Specifically, the reaction was performed in a 250 μL reaction system containing 100 mM PBS buffer (pH 7.2), 0.5 μM purified enzyme, 0.5 mM substrate 1a, and 1 mM NADH. The change in absorbance was monitored over 5 min. At the end of the reaction, an equal volume of ethyl acetate was immediately added to extract the product. The extraction was repeated three times, and organic phases were combined and then evaporated under a nitrogen evaporator. The residue was redissolved in an equal volume of methanol. A sample was prepared by filtration through a 0.22 μm membrane, and the formation of product was detected by HPLC.

“Novosphingobium aromaticivorans ketoreductase (NaKRED) mutant Y199A/N149L (parent SEQ ID NO. 2) (Novosphingobium aromaticivorans DSM 12444; E216K/G141A/I221V/N149L/Y199A)” was tested, and the Km was 147.0 ± 27.3 µM, the kcat was 2.115 ± 0.473 s⁻¹ and the kcat/Km was 14300 M⁻¹ s⁻¹.
